Test results from PMC7338617 (Redox Biology, 2020).

Legend:
Experiment in all cases: FRET or BRET
Rluc-tagged APJ-S335A = target: T1, Rluc-tagged APJ-S335A (UniProt P35414 1-380, S335A)
T1 sequence: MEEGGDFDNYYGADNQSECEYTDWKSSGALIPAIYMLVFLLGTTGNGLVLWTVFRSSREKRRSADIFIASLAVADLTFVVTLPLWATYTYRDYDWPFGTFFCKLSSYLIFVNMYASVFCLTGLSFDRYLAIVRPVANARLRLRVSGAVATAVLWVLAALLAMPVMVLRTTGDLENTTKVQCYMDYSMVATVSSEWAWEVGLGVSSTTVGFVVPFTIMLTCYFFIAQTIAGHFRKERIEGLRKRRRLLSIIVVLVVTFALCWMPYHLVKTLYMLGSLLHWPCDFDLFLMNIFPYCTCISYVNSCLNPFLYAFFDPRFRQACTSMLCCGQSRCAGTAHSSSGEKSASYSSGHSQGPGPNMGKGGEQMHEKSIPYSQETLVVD

[1] = target: T2, Rluc-tagged WT APJ (apelin receptor) (UniProt P35414 1-380)
T2 sequence: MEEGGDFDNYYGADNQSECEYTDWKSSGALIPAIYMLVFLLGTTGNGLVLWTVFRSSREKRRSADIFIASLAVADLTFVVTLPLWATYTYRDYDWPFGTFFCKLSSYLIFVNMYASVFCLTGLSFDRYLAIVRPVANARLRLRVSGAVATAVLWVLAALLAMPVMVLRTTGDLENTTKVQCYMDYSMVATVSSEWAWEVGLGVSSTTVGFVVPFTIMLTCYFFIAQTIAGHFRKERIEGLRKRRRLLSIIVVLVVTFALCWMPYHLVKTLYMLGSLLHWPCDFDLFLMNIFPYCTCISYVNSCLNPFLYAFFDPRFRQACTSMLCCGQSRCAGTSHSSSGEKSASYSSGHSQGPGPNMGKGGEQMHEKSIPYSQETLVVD

Rluc-tagged APJ-S348A = target: T3, Rluc-tagged APJ-S348A (UniProt P35414 1-380, S348A)
T3 sequence: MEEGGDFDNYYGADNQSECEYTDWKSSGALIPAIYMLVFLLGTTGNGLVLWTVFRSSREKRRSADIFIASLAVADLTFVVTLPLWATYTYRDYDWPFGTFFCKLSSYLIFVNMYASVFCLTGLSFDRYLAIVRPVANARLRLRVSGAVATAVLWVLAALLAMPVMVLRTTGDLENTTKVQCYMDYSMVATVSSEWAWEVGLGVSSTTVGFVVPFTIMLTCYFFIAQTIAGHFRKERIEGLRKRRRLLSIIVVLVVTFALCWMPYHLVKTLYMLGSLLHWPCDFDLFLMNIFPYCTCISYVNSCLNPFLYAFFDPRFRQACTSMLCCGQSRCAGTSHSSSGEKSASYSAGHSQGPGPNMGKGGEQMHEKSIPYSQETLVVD

Rluc-tagged APJ-S369A = target: T4, Rluc-tagged APJ-S369A (UniProt P35414 1-380, S369A)
T4 sequence: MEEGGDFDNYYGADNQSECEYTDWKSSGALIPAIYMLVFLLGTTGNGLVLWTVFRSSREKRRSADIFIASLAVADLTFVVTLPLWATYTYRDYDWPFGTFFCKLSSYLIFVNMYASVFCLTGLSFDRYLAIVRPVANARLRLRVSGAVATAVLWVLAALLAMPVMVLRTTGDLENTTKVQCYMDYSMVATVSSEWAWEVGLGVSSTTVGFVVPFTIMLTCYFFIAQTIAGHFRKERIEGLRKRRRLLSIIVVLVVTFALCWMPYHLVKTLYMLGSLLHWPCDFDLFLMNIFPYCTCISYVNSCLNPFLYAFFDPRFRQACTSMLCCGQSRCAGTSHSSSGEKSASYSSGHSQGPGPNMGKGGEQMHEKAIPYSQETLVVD

Rluc-tagged APJ-S345A = target: T5, Rluc-tagged APJ-S345A (UniProt P35414 1-380, S345A)
T5 sequence: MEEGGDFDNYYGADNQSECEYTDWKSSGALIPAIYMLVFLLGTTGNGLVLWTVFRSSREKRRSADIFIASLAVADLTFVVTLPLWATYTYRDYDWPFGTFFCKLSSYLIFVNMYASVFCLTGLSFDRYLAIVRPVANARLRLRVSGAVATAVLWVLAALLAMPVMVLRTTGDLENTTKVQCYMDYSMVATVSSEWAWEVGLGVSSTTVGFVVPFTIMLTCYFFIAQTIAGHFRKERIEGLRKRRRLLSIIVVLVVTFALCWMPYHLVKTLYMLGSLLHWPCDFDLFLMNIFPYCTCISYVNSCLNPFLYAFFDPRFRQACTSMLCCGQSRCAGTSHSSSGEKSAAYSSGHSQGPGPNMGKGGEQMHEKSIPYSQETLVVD

Rluc-tagged APJ-S339A = target: T6, Rluc-tagged APJ-S339A (UniProt P35414 1-380, S339A)
T6 sequence: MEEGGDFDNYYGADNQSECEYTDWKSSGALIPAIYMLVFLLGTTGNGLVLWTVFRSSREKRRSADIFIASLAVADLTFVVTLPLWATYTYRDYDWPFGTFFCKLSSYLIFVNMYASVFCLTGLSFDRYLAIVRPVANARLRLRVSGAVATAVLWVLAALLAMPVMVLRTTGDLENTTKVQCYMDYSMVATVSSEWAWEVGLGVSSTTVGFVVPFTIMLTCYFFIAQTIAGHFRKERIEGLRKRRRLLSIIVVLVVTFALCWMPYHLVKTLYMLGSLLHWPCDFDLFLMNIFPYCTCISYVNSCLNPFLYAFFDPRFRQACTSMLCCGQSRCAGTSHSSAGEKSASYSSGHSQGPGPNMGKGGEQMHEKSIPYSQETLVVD

B1: EGFP-tagged β-arrestin1 (natural protein)
chain: MGDKGTRVFKKASPNGKLTVYLGKRDFVDHIDLVDPVDGVVLVDPEYLKERRVYVTLTCAFRYGREDLDVLGLTFRKDLFVANVQSFPPAPEDKKPLTRLQERLIKKLGEHAYPFTFEIPPNLPCSVTLQPGPEDTGKACGVDYEVKAFCAENLEEKIHKRNSVRLVIRKVQYAPERPGPQPTAETTRQFLMSDKPLHLEASLDKEIYYHGEPISVNVHVTNNTNKTVKKIKISVRQYADICLFNTAQYKCPVAMEEADDTVAPSSTFCKVYTLTPFLANNREKRGLALDGKLKHEDTNLASSTLLREGANREILGIIVSYKVKVKLVVSRGGLLGDLASSDVAVELPFTLMHPKPKEEPPHREVPESETPVDTNLIELDTNDDDIVFEDFARQRLKGMKDDKDEEDDGTGSPHLNNR
B1 was tested, and the “EC50 of apelin-36 for the BRET between the pair” value (shortened to “EC50”) (Rluc-tagged APJ-S335A) was 4.5 nM, the “EC50” value [1] was 4.54 nM and the “EC50” value (Rluc-tagged APJ-S348A) was 4.95 nM. The “EC50” value (Rluc-tagged APJ-S369A) was 4.99 nM, the “EC50” value (Rluc-tagged APJ-S345A) was 4.36 nM and the “EC50” value (Rluc-tagged APJ-S339A) was 9.72 nM.
